# Like-named read-outs stand apart in the source and are kept apart here.
# Sequences of proteins named here, by UniProt entry; tags and fusion partners are left off. Residues count along the entry.
# UniProt Q2K340, 1-1154 R472S: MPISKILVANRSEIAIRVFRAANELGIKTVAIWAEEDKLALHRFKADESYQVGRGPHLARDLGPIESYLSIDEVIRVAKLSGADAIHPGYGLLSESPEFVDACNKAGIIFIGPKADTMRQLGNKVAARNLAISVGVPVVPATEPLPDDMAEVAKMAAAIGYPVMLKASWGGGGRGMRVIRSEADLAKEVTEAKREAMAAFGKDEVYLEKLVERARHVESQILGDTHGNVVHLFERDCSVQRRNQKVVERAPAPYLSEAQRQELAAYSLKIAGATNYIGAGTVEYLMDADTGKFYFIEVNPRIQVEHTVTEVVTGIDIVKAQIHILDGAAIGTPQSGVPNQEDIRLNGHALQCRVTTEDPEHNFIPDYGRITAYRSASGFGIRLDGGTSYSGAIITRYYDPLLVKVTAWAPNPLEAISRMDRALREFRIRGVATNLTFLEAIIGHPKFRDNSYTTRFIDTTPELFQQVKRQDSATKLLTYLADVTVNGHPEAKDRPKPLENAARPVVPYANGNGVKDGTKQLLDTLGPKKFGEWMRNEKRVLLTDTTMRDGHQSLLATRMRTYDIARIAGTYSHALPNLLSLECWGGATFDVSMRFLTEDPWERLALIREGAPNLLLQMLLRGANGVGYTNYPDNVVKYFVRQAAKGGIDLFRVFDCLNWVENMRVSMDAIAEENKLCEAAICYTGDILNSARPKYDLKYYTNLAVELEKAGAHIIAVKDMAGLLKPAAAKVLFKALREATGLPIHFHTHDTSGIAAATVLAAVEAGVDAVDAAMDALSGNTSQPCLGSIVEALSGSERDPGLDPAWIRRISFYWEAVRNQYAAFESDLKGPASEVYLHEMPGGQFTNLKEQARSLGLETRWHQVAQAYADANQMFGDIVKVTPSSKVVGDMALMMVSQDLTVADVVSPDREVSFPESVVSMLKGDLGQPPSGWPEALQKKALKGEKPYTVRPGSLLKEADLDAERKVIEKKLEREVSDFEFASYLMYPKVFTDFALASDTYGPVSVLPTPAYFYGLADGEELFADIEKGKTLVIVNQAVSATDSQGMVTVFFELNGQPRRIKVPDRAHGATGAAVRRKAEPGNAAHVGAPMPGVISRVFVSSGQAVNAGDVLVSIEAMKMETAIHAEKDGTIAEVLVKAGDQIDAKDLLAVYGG
# Key:
# [1] = target: T1, pyruvate carboxylase (RePC) (Rhizobium etli, UniProt Q2K340); test: biochemical; conditions: KT (activation constant), activation by MgTNP-ATP in the absence of acetyl CoA, fit to equation (i), Fig. 4c
# [2] = target: pyruvate carboxylase R472S mutant (RePC) (Rhizobium etli, UniProt Q2K340, R472S); test: biochemical
# [3] = tested on: pyruvate carboxylase R472S mutant (RePC); test: biochemical; design: species or system Rhizobium etli
# [4] = target: T1, pyruvate carboxylase (RePC); assay type: binding
# [5] = target: T1, pyruvate carboxylase (RePC); test: Stopped-flow fluorescence kinetics of MgTNP-ATP binding to pyruvate carboxylase
structure (smiles),measurement,setting,value
"Nc1ncnc2c1ncn2[C@@H]1O[C@H](COP(=O)(O)OP(=O)(O)OP(=O)(O)O)[C@H]2OC3(O[C@H]21)C([N+](=O)[O-])=CC(=[N+]([O-])[O-])C=C3[N+](=O)[O-] (stereo partly shown) [MgTNP-ATP, 2′,3′-O-(2,4,6-trinitrophenyl) adenosine 5′-triphosphate]",EC50,[1],21 ± 3 µM
same,EC50,[2],39 ± 8 µM
same,KT of R472S mutant relative to wild-type enzyme,[3],1.2-1.8 times
same,fluorescence relative to MgTNP-ATP alone,[4]; 5 μM MgTNP-ATP + 10 μM enzyme + 0.25 mM acetyl CoA,188%
same,residual fluorescence relative to MgTNP-ATP alone,[4]; 5 μM MgTNP-ATP + 10 μM enzyme + 0.25 mM acetyl CoA + 2.5 mM MgATP,164%
same,Kd,"[5]; K1 (dissociation constant, k-1/k1), fast phase, fit to eq (v)",18 ± 1 µM
same,Kd,"[5]; K2 (dissociation constant, k-2/k2), intermediate phase, fit to eq (ix)",21 ± 1 µM
same,Kd,"[5]; K2 (dissociation constant, k-2/k2), intermediate phase, fit to eq (x)",24 ± 12 µM
same,kon,"[5]; read-out: k1, fast phase, fit to eq (v)",8.7e+06 ± 800000 M⁻¹ s⁻¹
same,kon,"[5]; read-out: k2, intermediate phase, fit to eq (ix)",500000 ± 20000 M⁻¹ s⁻¹
same,kon,"[5]; read-out: k2, intermediate phase, fit to eq (x)",580000 ± 30000 M⁻¹ s⁻¹
same,koff,"[5]; read-out: k-1, fast phase, fit to eq (v)",162 ± 19 s⁻¹
same,koff,"[5]; read-out: k-1, fast phase, fit to eq (vi)",244 ± 5 s⁻¹

# — article PMC3238500 (Archives of biochemistry and biophysics, 2011)
